Earlier results as cited in PMC4631615 (Bipolar disorders, 2015).

System: pregnant women
Details: human, first trimester exposure, meta-analysis; cited from earlier work

Structure (SMILES)	Malformation rate [%]
Cc1cc2c(s1)Nc1ccccc1N=C2N1CCN(C)CC1 [OLA, 2-methyl-4-(4-methyl-1-piperazinyl)-10H-thieno(2,3-b)([1],[5])benzodiazepine]	3.5
Cc1nc2n(c(=O)c1CCN1CCC(c3noc4cc(F)ccc34)CC1)CCCC2 [RIS, 3-(2-(4-(6-fluoro-1,2-benzisoxazol-3-yl)piperidino)ethyl)-6,7,8,9-tetrahydro-2-methyl-4H-pyrido(1,2-a)pyrimidin-4-one]	5.1
